The text below walks through data of patent US20080015110A1.

This assay deals with dicamba monooxygenase (DMO) purified from P. maltophilia, strain DI-6 (Pseudomonas maltophilia, strain DI-6) (UniProt Q5S3I3). The assay is described as follows: cell-based or functional assay.

Substance “purified spinach ferredoxin (from UniProt P00221 51-147)” showed a Degradation of Dicamba (%) of 83% and a Formation of DCSA (%) of 95%.

Clostridium ferredoxin showed a Degradation of Dicamba (%) of 82% and a Formation of DCSA (%) of 90%.
